In patent US6028110A, “Succinyl hydroxamic acid, N-formyl-N-hydroxy amino carboxylic acid and succinic acid amide derivatives as metalloprotease inhibitors” (British Biotech Pharmaceuticals Ltd., priority 1994, dated 2000):
Where a name gives a salt, the structure may show the parent alone.

Amino acid sequences for entries named in this document (tags omitted). Residues count along the entry.
UniProt P08254, 100-477: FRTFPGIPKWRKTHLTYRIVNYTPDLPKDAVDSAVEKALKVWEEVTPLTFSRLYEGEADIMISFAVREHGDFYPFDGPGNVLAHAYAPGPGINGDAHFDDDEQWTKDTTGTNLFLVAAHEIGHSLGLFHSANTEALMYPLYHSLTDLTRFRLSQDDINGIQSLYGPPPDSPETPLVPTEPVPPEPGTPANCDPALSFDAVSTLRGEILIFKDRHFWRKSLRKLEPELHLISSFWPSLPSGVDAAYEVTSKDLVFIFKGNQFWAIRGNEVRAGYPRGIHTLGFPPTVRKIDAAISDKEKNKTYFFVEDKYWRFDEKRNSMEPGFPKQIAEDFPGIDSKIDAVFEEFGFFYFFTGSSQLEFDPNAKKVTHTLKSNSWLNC

Target: stromelysin (Homo sapiens, UniProt P08254)
Experiment: Inhibition of stromelysin (14C acetylate casein)
Assay type: biochemical
Details: 37°, 16 hours, pH 7.5

CCCCCCCCCCCCCCCC[C@H](CC(=O)O)C(=O)N[C@@H](Cc1ccccc1)C(=O)NC [Example 1, 3R-(1S-Methylcarbamoyl-2-phenyl-ethylcarbamoyl)nonadecanoic acid (dicyclohexylamine salt)] gave an inhibition at 100 µM of 10%.
